The results in this text go back to paper PMC5079754 (Biochimica et biophysica acta, 2016).

Assay [1] concerns the target T1, Lmod2s1 (residues 2–41 of Lmod2) (Homo sapiens, UniProt Q6P5Q4).
T1 sequence (Q6P5Q4 2-41): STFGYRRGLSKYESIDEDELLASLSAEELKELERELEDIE
As to the kind of experiment: CD thermal unfolding at 222 nm of Tpm1.1 model peptide complexes with Lmod2s1. Format: binding. The following applies: compared with the earlier Kd for αTM1a1-14Zip [32].

Assay [2] concerns the target Tmod1s1 (res. 1–38 of Tmod1). The assay is described as follows: CD thermal unfolding at 222 nm of Tpm1.1 model peptide complexes with Tmod1s1. Particulars: read-out: Kd (30°C,µM), Tmod1s1, Kd=exp(−ΔΔG/RT) from CD unfolding of the complex and of the Tpm1.1 peptide alone, 40 µM equimolar, 10 mM sodium phosphate pH 7.0, 100 mM NaCl, duplicates. Format: binding, Gallus gallus.

`CC[C@H](C)[C@H](NC(=O)[C@H](C)NC(=O)[C@H](CC(=O)O)NC(=O)[C@H](CCSC)NC(=O)CN)C(=O)N[C@@H](CCCCN)C(=O)N[C@@H](CCCCN)C(=O)N[C@@H](CCCCN)C(=O)N[C@@H](CCSC)C(=O)N[C@@H](CCC(N)=O)C(=O)N[C@@H](CCSC)C(=O)N[C@@H](CC(C)C)C(=O)N[C@@H](CCCCN)C(=O)N[C@@H](CC(C)C)C(=O)N[C@@H](CC(=O)O)C(=O)N[C@@H](CCCCN)C(=O)N[C@@H](CCC(=O)O)C(=O)N[C@@H](CC(N)=O)C(=O)N[C@@H](C)C(=O)N[C@@H](CC(C)C)C(=O)N[C@@H](CC(=O)O)C(=O)N[C@@H](CCCNC(=N)N)C(=O)N[C@@H](CC(N)=O)C(=O)N[C@@H](Cc1ccc(O)cc1)C(=O)N[C@@H](Cc1c[nH]cn1)C(=O)N[C@@H](CC(C)C)C(=O)N[C@@H](CCC(=O)O)C(=O)N[C@@H](CC(N)=O)C(=O)N[C@@H](CCC(=O)O)C(=O)N[C@H](C(=O)N[C@@H](C)C(=O)N[C@@H](CCCNC(=N)N)C(=O)N[C@@H](CC(C)C)C(=O)N[C@@H](CCCCN)C(=O)N[C@@H](CCCCN)C(=O)N[C@@H](CC(C)C)C(=O)N[C@H](C(=O)NCC(=O)N[C@@H](CCC(=O)O)C(=O)N[C@@H](CCCNC(=N)N)C(=O)O)C(C)C)C(C)C` [αTM1a1–21Zip]: the “fold increase of affinity of Lmod2s1 versus the Lmod2s1/αTM1a1-14Zip complex” value in assay [1] is “~ two-fold”. For the same molecule, the Kd in assay [2] was found to be 1 ± 0.13 µM.
